Legend:
[1] = test system: orthotopic MC38-derived tumors; conditions: mouse, in vivo
Psmd4 = Psmd4 (UniProt O35226); conditions: bacterially expressed purified mouse Psmd4
26S immunoproteasome = 26S immunoproteasome (Mus musculus, UniProt O35226)
[2] = test system: CRC patient-derived tumor organoids; conditions: compared to control PDOs; organoid dissociation and tumor cell death
CT26-derived tumors = assay: Subcutaneous CT26 tumor model in BALB/c mice; conditions: mouse, in vivo
MC38-derived tumors = assay: Subcutaneous MC38 tumor model in C57BL/6 mice; conditions: mouse, in vivo

## C=C1CCCC2(C)C=C3OC(=O)C(C)=C3CC12 (stereo not drawn) [ATT-I, atractylenolide I]
[1]
  anti-tumor effect (weight of cecal wall implanted tumors): significantly enhanced the anti-tumor effects
MC38-OVA tumor organoids
  effect on organoids without addition of OT-I cells: no notable effect
  killing of tumor organoids by OT-I cells: markedly enhanced killing
Psmd4
  Kd: 0.4 µM
26S immunoproteasome
  effect on immunoproteasome activity after knockdown of PSMD4: abolished the effect of ATT-I
[2]
  vulnerability of PDOs to autologous CD8+ T cell killing: more vulnerable to CD8+ T cell killing
CT26-derived tumors
  tumor growth: modest effects
MC38-derived tumors
  additional benefit from ATT-I in the combination therapy with PD-1: completely disappeared
  tumor growth: modest effects

— patent US12691093B2 (THE TRUSTEES OF INDIANA UNIVERSITY, priority 2020, dated 2026)
